# Binding of CDR-mutated scFvs to a peptide of the spike HR2 region

From the AlphaSeq antibody data of Li et al. 2023 (doi:10.1038/s41467-023-39022-2), copy in the FLAb collection.

The target is the same throughout: PDVDLGDISGINAS, from the HR2 region of SARS-CoV-2 spike.

Ab-14 is the parent antibody, in scFv form: VH, then three GGGGS repeats, then VL. The heavy chain is unchanged in all variants.
VH: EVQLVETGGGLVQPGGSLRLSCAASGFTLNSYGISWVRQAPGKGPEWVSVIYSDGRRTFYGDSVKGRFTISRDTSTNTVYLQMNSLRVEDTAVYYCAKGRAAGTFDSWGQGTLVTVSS
VL: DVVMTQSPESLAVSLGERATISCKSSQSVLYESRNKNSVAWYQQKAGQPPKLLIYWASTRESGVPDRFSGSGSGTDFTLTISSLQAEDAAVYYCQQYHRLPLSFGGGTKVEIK

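The parent was found by panning a naive human phage display library on the peptide. The variants were designed computationally from a first round of random CDR variants and then made and measured. Group labels follow the data file (Ctrl: baseline library sampled from a position-specific scoring matrix, with some repeated check sequences; Rand: our label for a block that the file lists under HC and that is probably the random mutants of the ten best first-round binders; GP: Gaussian process model; HC: hill climbing; Gen: genetic algorithm; Gibbs: Gibbs sampling; a sequence that several methods proposed may carry one label only). AlphaSeq pools MATa yeast showing the antibodies with MATalpha yeast showing the peptide. Binding brings cells together so that they mate, and sequencing counts the barcode pairs among the diploids. The ratio of observed to expected reads was calibrated, replicate by replicate, on BCL2-family standards whose Kd was known from biolayer interferometry. Mating was done six times.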

Changes read parent residue, position, new residue, counted from the first residue of the VL shown.
This list holds designs with at most six substitutions.
Values are apparent Kd, the geometric mean of the replicates that gave a signal; lower means stronger binding.
Where no diploid with the target was found in any replicate, the entry reads "nd": below detection, most likely a poor binder, though not proof of it.
Of ten entries with the parent sequence, four were seen in most replicates (averages 2.2 nM to 240 nM), three in one and three in none, so single entries are noisy.
Nonspecific signal, from three strains lacking the peptide, appeared in 4% of pairings of all light chain designs, centred on 430 nM (5% of these signals below 38 nM); values are not corrected for it.
A sequence measured in both rounds can read differently, since the two assays cover different ranges.
The authors' rule: three or more of the six replicates give a measured affinity, fewer mean a poor binder.

For S25L+V29N+W56N+E61Y [GP_Gen], the assay gave 1.3 nM (6 of 6 replicates). For S25V+S58D [Ctrl], the assay gave 5.1 nM (6 of 6 replicates). With K24V+S26E+R34S+W56G+T59G [Ctrl] the result was 25 nM (6 of 6 replicates). For K24Y+S25L+W56D [GP_Gen], the assay gave 1.2 nM (6 of 6 replicates). For S25L+N35L+W56N+E61M+S62Y [GP_Gibbs], the assay gave 3.0 nM (6 of 6 replicates). With S26G+S28H+W56Q [Ctrl] the result was 1.0 nM (6 of 6 replicates). With K24F+S26L+Y31Q+K36F+W56H+S62D [GP_HC] the result was 23 nM (6 of 6 replicates).

With S25V+S26G+S28G+W56G+T59Q+E61C [GP_HC] the result was 740 pM (6 of 6 replicates). For S25Q+R34V+K36S+W56D [GP_HC], the assay gave 12 nM (5 of 6 replicates). The variant L30G+Y31F+W56D [GP_HC] showed 1.9 nM (6 of 6 replicates). With R34Q+S58H [Ctrl] the result was 53 nM (5 of 6 replicates). With Q27I+V29Y+L30E+W56E+S103M [GP_HC] the result was 900 pM (6 of 6 replicates). The variant K36E+W56Y+T59L+E61D [Ctrl] showed 44 nM (6 of 6 replicates). The variant S28G+T59N [Ctrl] showed nd (0 of 6 replicates).

The variant K24M+W56K+P101I [Ctrl] gave 34 nM (6 of 6 replicates). With S25L+S26Q+L30E+W56N+T59Q+E61L [GP_Gen] the result was 550 pM (6 of 6 replicates). For S26D+Q27M+L30Y+Y31F [Ctrl], the assay gave 300 nM (5 of 6 replicates). For S26P+W56H+S62D+R99Q [GP_HC], the assay gave 830 pM (6 of 6 replicates). For S25I+W56K+S62N [Ctrl], the assay gave 780 pM (6 of 6 replicates). With S25V+Q27M+V29Y+Y31L+W56E [GP_HC] the result was 1.4 nM (6 of 6 replicates). For L30P+Y31C [Ctrl], the assay gave nd (0 of 6 replicates).

The variant W56F+H98S [Ctrl] gave nd (0 of 6 replicates). The variant S25Q+S38A+W56D+Q96S+R99W [GP_HC] gave 1.5 nM (6 of 6 replicates). For S28G+W56G+T59Q+E61W [GP_HC], the assay gave 8.4 nM (6 of 6 replicates). With S25L+S33Q+N35Q+W56N+E61M [GP_Gen] the result was 1.6 nM (6 of 6 replicates). The variant S25L+S26Q+S28Q+V29T+S62E [GP_HC] showed 61 nM (4 of 6 replicates). With S25I+W56E+S62V [GP_Gen] the result was 2.4 nM (6 of 6 replicates). The variant V29W+W56G+T59H+S62V [GP_HC] showed 950 pM (6 of 6 replicates).

For S25V+N35M+W56D+E61C+S103I [GP_HC], the assay gave 610 pM (6 of 6 replicates). The variant S25L+Q27A+W56N [GP_HC] showed 770 pM (6 of 6 replicates). For S25V+V29G+S33D+W56N [GP_Gen], the assay gave 590 pM (6 of 6 replicates). The variant S25V+W56E+E61S [GP_Gen] showed 780 pM (6 of 6 replicates). With S25V+L30P+W56H [GP_Gen] the result was 1.2 nM (6 of 6 replicates). For Q27E+V29Y+Y31E+W56E [GP_HC], the assay gave 780 pM (6 of 6 replicates). The variant S25V+V29E+W56N+T59Q+E61L [GP_Gen] showed 730 pM (6 of 6 replicates).

The variant S25F+E32Q+W56N [GP_Gen] showed 540 pM (6 of 6 replicates). The variant K24N+S25L+V29W+W56N+A57G+S58N [GP_HC] gave 330 pM (6 of 6 replicates). The variant S25F+N35T+W56N+S62F [Rand] showed 980 pM (6 of 6 replicates). The variant K24I+S25V+Y31M+W56D [GP_HC] gave 1.0 nM (6 of 6 replicates). For S25V+S26Q+W56N+E61M [GP_Gen], the assay gave 1.2 nM (6 of 6 replicates). The variant S25F+V29F+S38C+W56K+E61A [Ctrl] showed 19 nM (6 of 6 replicates). The variant Q27S+V29Y+W56E+S103M [GP_HC] gave 950 pM (6 of 6 replicates).

The variant S25L+V29Q+W56N+T59Q+S62Q [GP_Gen] showed 640 pM (6 of 6 replicates). The variant Y31G+S33E+W56D [GP_HC] showed 3.1 nM (6 of 6 replicates). With Y31G+S33M+W56A [Ctrl] the result was 8.3 nM (6 of 6 replicates). With S25L+N35M+W56N+T59E [GP_Gen] the result was 3.0 nM (6 of 6 replicates). With S25L+S26L+W56H [GP_HC] the result was 1.1 nM (6 of 6 replicates). With S25V+W56N+S103F [GP_Gen] the result was 1.1 nM (6 of 6 replicates). The variant S33K+K36A+Q96S [Ctrl] showed 170 nM (5 of 6 replicates).

For R99M [Ctrl], the assay gave 63 nM (5 of 6 replicates). The variant S25L+V29M+W56N [GP_Gen] showed 420 pM (6 of 6 replicates). The variant W56K+Y97L [Ctrl] showed nd (0 of 6 replicates).

The closing 7 entries, repeated:

| changes | group | apparent Kd | seen in |
|---|---|---|---|
| S25L+N35M+W56N+T59E | GP_Gen | 3.0 nM | 6 of 6 |
| S25L+S26L+W56H | GP_HC | 1.1 nM | 6 of 6 |
| S25V+W56N+S103F | GP_Gen | 1.1 nM | 6 of 6 |
| S33K+K36A+Q96S | Ctrl | 170 nM | 5 of 6 |
| R99M | Ctrl | 63 nM | 5 of 6 |
| S25L+V29M+W56N | GP_Gen | 420 pM | 6 of 6 |
| W56K+Y97L | Ctrl | nd | 0 of 6 |